PTHR1 ag – activates the human parathyroid hormone receptor PTHR1. AID 743266. Q03431. Potency, µM (series often up to 115 µM), inactives show top-dose activation, most hits filed as activators. 410,000 tested, 0.075% active. HEK293 GP2 PTHR1 cells, GloSensor cAMP luminescence, 1 h; note: potency is the fitted concentration of half-maximal effect; nearly all actives have a fitted effect of over 55% in size
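HEK-293-derived GP2 cells expressing PTHR1 and a GloSensor cAMP reporter, 3,000/well, plated overnight, given luciferin plus IBMX (each 0.5 mM as added) for 1 h at 37 °C, then compound for 1 h at 37 °C. Luminescence was read after 15 min at room temperature.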
GLP1R ag – activates the human GLP-1 receptor; HEK293 GLP-1R CRE-luciferase, luminescence, 4-6 h; cells express a hypersensitive GLP-1R form; Potency, µM (titrated, usually from 45.6 µM), without a hit: at the top dose activation, hits mostly activators; 380,000 tested, 0.007% active; AID 624172; note: potency is the fitted concentration of half-maximal effect; % of control where 0% means no effect
HEK293 tox – cytotoxicity in counter-screen for GLP-1R inverse agonists. 410,000 tested, 0.13% active. HEK293 cAMP-luciferase reporter cells, luminescence, 24 h. Potency, µM (highest dose often 38.3 µM), inactives show at the top dose activity change, negative = inhibition, most hits filed as inhibitors;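 note: loss of luciferase light is scored as toxicity; potency is the fitted concentration of half-maximal effect; % is set by controls: 0 for no effect and ±100 for the full control effect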
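Luminescence readout: signal drop marks cytotoxicity. Plated cells grew 12 h at 37 °C, 5% CO2, received 23 nL compound for 24 h, then got luciferase reagent, read after 12 min at RT.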
Pin1 inh – human Pin1 inhibition | Pin1 FP peptide displacement, HiFluor488, 10 min | Q13526 | Potency, µM (series often up to 115 µM), inactives show top-dose activity, negative = inhibition, hits mostly inhibitors | AID 504891 | 390,000 tested, 0.009% active; active = well fitted inhibition curve with a large enough effect in the polarisation, with a control signal flat, not every such curve was filed as active; inconclusive = small, poorly fitted or top-dose-only effect, or effect the other way, or a change in a side signal; inactive = no such curve, though single readings can be large or run the other way; the % refers to the polarisation; note: potency is the fitted concentration of half-maximal effect; % is set by controls: 0 for no effect and ±100 for the full control effect
GLP1R inv ag – inverse agonists of human GLP-1 receptor; P43220; AID 624417; Potency, µM (doses to about 38.3 µM), without a hit: top-dose activity change, negative = inhibition, actives largely listed as inhibitors; HEK293 GLP-1R CRE-luciferase, luminescence, 24 h; GLP-1R form is constitutively active; 410,000 tested, 1.6% active; note: potency is the fitted concentration of half-maximal effect; % is set by controls: 0 for no effect and ±100 for the full control effect; nearly all actives have a fitted effect of over 55% in size
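HEK293 cells stably co-expressing constitutively active GLP-1R and a cAMP-responsive luciferase reporter were seeded in DMEM with 10% Nu serum, given compounds after 12 h, and incubated 24 h at 37 deg C. Luminescence was then read.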
miR-21 reporter – raises the signal of a miR-21 reporter; Potency, µM (doses to about 38.3 µM), inactives show top-dose reporter change, positive = more light; HeLa miR-21 FLuc reporter, luciferase, 48 h; AID 2288; 340,000 tested, under 10 active; active = well fitted rising curve with a large enough effect; inconclusive = small, poorly fitted or top-dose-only effect; inactive = no such curve, though single readings can be large or run the other way;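 further: % of control where 0% means no effect; miR-21 action dims this reporter so a rising signal means less miR-21 action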
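Using DMEM plus 10% FBS, HeLa miR-21-FLuc cells are incubated with test compounds (final up to about 40uM) for 48 hours; firefly luciferase signal is then imaged following reagent-mediated lysis.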
* hit, by the source's call; i = inactive; ? = inconclusive; nt = not tested or not shown; [ ] = another dose, or the depositor's remark. Only some compounds are listed: those with a hit (about 1.7% of all), similar ones and a draw of the others. Unless noted, calls come from the whole dose curve; as a rule, active = well fitted curve in the direction sought with a large enough effect; inconclusive = small, poorly fitted or top-dose-only effect, or another doubt; inactive = no such curve, though single readings can be large; an effect the other way counts as inactive or inconclusive.

nr | SMILES | PTHR1 ag | GLP1R ag | HEK293 tox | Pin1 inh | GLP1R inv ag | miR-21 reporter
1 | Cc1c(C(=O)Nc2ccccc2)cnn1-c1ccccc1 | -33% | 1% | -25% | -2% | ? | nt
2 | COc1ccc(NC(=O)c2cccnc2Nc2ccc(OC)cc2)cc1 | -9%[57.5 µM] | 9% | -9% | 2% | 10µM* | -10%
3 | COc1ccc(NC(=O)c2cn(-c3ccccc3)nc2-c2ccc(C)cc2)cc1 | i | nt | 1% | 20% | 7.9µM* | -10%
4 | COc1ccc(Nc2ncccc2C(=O)Nc2ccccc2)cc1 | -1%[57.5 µM] | 5% | 7% | -9% | ? | -10%
5 | COc1ccc(NC(=O)c2cnn(-c3ccccc3)c2C)cc1 | -42% | 2% | -17% | -1% | 7.9µM* | -9%
6 | Cc1ccc(NC(=O)c2cn(-c3ccccc3)nc2-c2ccccc2)cc1 | 7% | nt | 6% | 3% | ? | -1%
7 | CCN(CC)CCNC(=S)NC(=O)c1cn(-c2ccccc2)nc1-c1ccc(OC)cc1 | 14% | 19% | ? | -2% | 5µM* | -5%
8 | CC1CCC(N2CC(=O)N(C3CCCCC3)C(c3ccc(Cl)cc3)C2=O)CC1 (stereo not given) | i | nt | -6% | -3% | 2% | -6%
9 | CCc1ccc(NC(=O)N2CCN(c3nnc(C)c4c(C)n(-c5ccc(Cl)cc5)nc34)CC2)cc1 | -6% | nt | 6% | ? | -14% | -4%
10 | Cc1ccc(NS(=O)(=O)c2cc3c(cc2-c2ccccc2)NC(=O)CO3)cc1C | nt | nt | nt | 23% | nt | nt
11 | COc1ccc(NC(=O)CN(C)C(=O)c2cn(-c3ccccc3)nc2-c2cccs2)cc1 | i | -1% | -4% | 15% | 11µM* | nt
12 | CN(CC(=O)Nc1ccc(F)cc1)C(=O)c1cn(-c2ccccc2)nc1-c1cccs1 | -28% | -1% | 6% | 5% | ? | nt
13 | Cc1nc(S(=O)(=O)N2CCN(c3cccc(Cl)c3)CC2)cn1C | -22% | -4% | -9% | -5% | 11% | -25%
14 | Cc1cc2c(s1)c1cnn(Cc3cc(OC(F)(F)F)ccc3F)c(=O)c1n2C | nt | nt | nt | 1% | nt | nt
15 | Cc1c(NP(=O)(c2ccc(Br)cc2)c2ccc(Br)cc2)c(=O)n(-c2ccccc2)n1C | i | 11% | -15% | 0% | 11µM* | 10%
16 | CCCC(=O)Oc1c(S(=O)(=O)c2ccc(C)cc2)c(C)nn1C(C)(C)C | -15% | -2% | ? | -2% | 5.6µM* | 28%
17 | C=C1C[C@@H]2[C@H]3CCC4=CC(=O)C=C[C@]4(C)[C@@]3(F)[C@@H](O)C[C@]2(C)[C@]1(O)C(=O)COC(C)=O | nt | 0% | nt | nt | nt | nt
18 | CCC(C)n1c(SCC(=O)Nc2cc(C(C)(C)C)nn2-c2ccccc2)nc2ccccc2c1=O (stereo not given) | -7% | 12% | 0% | 24% | 11µM* | 16%
19 | CC(C)(C)c1cc(NC(=O)COc2ccc(Br)cc2)n(-c2ccccc2)n1 | i | 5% | -15% | 5% | 8.9µM* | -1%
20 | CC(C)(C)c1cc(NC(=O)COC(=O)c2ccccc2)n(-c2ccccc2)n1 | i | 4% | 3% | nt | ? | nt

Shown field by field: entries from further up.
17	C=C1C[C@@H]2[C@H]3CCC4=CC(=O)C=C[C@]4(C)[C@@]3(F)[C@@H](O)C[C@]2(C)[C@]1(O)C(=O)COC(C)=O
  PTHR1 ag = nt
  GLP1R ag = 0%
  HEK293 tox = nt
  Pin1 inh = nt
  GLP1R inv ag = nt
  miR-21 reporter = nt

18	CCC(C)n1c(SCC(=O)Nc2cc(C(C)(C)C)nn2-c2ccccc2)nc2ccccc2c1=O (stereo not given)
  PTHR1 ag = -7%
  GLP1R ag = 12%
  HEK293 tox = 0%
  Pin1 inh = 24%
  GLP1R inv ag = 11µM*
  miR-21 reporter = 16%

The listing continues:
Codes: A = PTHR1 ag; B = GLP1R ag; C = HEK293 tox; D = Pin1 inh; E = GLP1R inv ag; F = miR-21 reporter
21: NC(=O)C1CCN(c2nnc(-c3ccc4c(c3)OCCCO4)s2)CC1
  A: nt | B: nt | C: nt | D: 3% | E: nt | F: nt

22: COc1ccccc1CNCc1ccc(C)cc1
  A: -49% | B: 1% | C: 2% | D: -6% | E: 4% | F: 6%

23: COc1ccc2ccccc2c1CNCc1ccc(C)cc1
  A: -5% | B: 21% | C: -25% | D: 23% | E: 10µM* | F: 0%

24: COC(=O)[C@H]1[C@H]2C[C@@H]3c4[nH]c5ccccc5c4CCN3C[C@H]2C[C@@H](OC(=O)c2cc(OC)c(OC)c(OC)c2)[C@@H]1OC
  A: nt | B: 2% | C: nt | D: nt | E: nt | F: nt

25: COc1ccc(C(=O)Nc2cccc(OC(=O)c3ccc(C)c(C)c3)c2)cc1
  A: -4%[57.5 µM] | B: -20% | C: -30% | D: 15% | E: ? | F: -3%

26: CC(=O)Oc1ccc(C(=O)Nc2cccc(C(=O)c3ccc(C)c(C)c3)c2)cc1
  A: -12% | B: 2% | C: ? | D: 7% | E: 13µM* | F: 1%

Of the compounds above, two contain bromine:
Codes: A = PTHR1 ag; B = GLP1R ag; C = HEK293 tox; D = Pin1 inh; E = GLP1R inv ag; F = miR-21 reporter
15: Cc1c(NP(=O)(c2ccc(Br)cc2)c2ccc(Br)cc2)c(=O)n(-c2ccccc2)n1C
  A: i | B: 11% | C: -15% | D: 0% | E: 11µM* | F: 10%

19: CC(C)(C)c1cc(NC(=O)COc2ccc(Br)cc2)n(-c2ccccc2)n1
  A: i | B: 5% | C: -15% | D: 5% | E: 8.9µM* | F: -1%

Assay outcomes: PubChem, National Center for Advancing Translational Sciences (NCATS)
